{
  "source": "patent US6552060B1",
  "about": "“Asymmetric disulfides and methods of using same” (Prolx Pharmaceuticals, Inc., priority 1997, dated 2003)",
  "test_system": "HL60 cells",
  "assay": "Induction of apoptosis in HL60 cells",
  "type": "cell-based, human",
  "conditions": "N-acetylcysteine for 13 h prior to exposure",
  "data": [
    {"smiles": "CCCCSSc1ncc[nH]1", "note": "[III-2, n-butyl 2-imidazolyl disulfide]", "values": [
      {"measurement": "apoptosis after pretreatment with N-acetylcysteine", "result": "prevented apoptosis"}
    ]}
  ]
}
